## AlphaSeq binding of Ab-14 heavy chain variants to a spike HR2 peptide

Source: Li et al. 2023 (doi:10.1038/s41467-023-39022-2), MIT Lincoln Laboratory and A-Alpha Bio; data file from the FLAb repository.

Target: peptide PDVDLGDISGINAS, taken from heptad repeat 2 (HR2) of SARS-CoV-2 spike.

Parent scFv Ab-14: VH joined to VL by a (GGGGS)3 linker. Changes lie in the heavy chain CDRs alone.
VH: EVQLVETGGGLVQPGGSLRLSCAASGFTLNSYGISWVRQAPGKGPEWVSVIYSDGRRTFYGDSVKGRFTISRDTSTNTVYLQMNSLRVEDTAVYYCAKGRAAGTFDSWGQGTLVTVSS
VL: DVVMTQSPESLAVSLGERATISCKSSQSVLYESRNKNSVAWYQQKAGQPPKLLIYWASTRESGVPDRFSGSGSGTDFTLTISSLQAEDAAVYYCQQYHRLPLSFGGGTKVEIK

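The starting antibody came from a phage panning campaign against this peptide. The variants were designed computationally from a first round of random CDR variants and then made and measured. Several design methods are mixed in this list. AlphaSeq pools MATa yeast showing the antibodies with MATalpha yeast showing the peptide. After mating in shaken culture at 30 °C for 16 h, diploids were selected and their barcode pairs sequenced. The ratio of observed to expected reads was calibrated, replicate by replicate, on BCL2-family standards whose Kd was known from biolayer interferometry. The assay was run in six technical replicates.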

Variants are written as CDR1, CDR2 and CDR3 of the heavy chain (limits as in the source). Parent: GFTLNSYGIS, VIYSDGRRTFYGDSVK, GRAAGTFDS. Affinities are written as log10 Kd with Kd in nM; a lower number is a better binder. A mean of the replicates is given; it leaves out those without a signal. "nd" means that the variant was in the library but no mating with the target was seen in any replicate; the authors take this as a sign of poor binding, and no number exists. Of ten entries with the parent sequence, four were seen in most replicates (averages 0.34 to 2.37), three in one and three in none, so single entries are noisy.

CDR-H1	CDR-H2	CDR-H3	mean, log10 nM	replicates with signal
GFDLNEYGIS	VIYADGMRTFYDDSVK	GQLAGTFDI	-0.56	6 of 6
GFELNSYGIS	VIYSDGRRTFYIDSVK	GQAAGTFDL	1.01	6 of 6
GFDLNEYGIS	VIYADGRRTFYADSVK	GNYAGTFDS	-0.31	6 of 6
GFDINEYGVS	VIYADGMRSYYAGKVK	GSNGALFEV	nd	0 of 6
GFNLNSYGIS	VIYSDGRRTFYQDSVK	GQAAGTFDS	0.73	6 of 6
GFELNSYGIS	VIYSDGRRTFYGDSVK	GREAGTFDK	0.48	6 of 6
GFTLNEDGIS	VIYSDGRRTFYGGSVK	GRAAVTFDQ	nd	0 of 6
GFTLNDYGIS	VIYSDGKRTQYSDSVK	GRAAGTFDS	1.17	6 of 6
GFQLNSYGIS	VIYSDGRRTAYGDSVK	LRAAGTFDS	2.84	2 of 6
GFTLNEYGIS	VIYSDGRRTFYGDSVK	GRAAGTFTC	nd	0 of 6
GFGLDEYGIS	VIYADGMRANYATSVK	GYQAGVISV	nd	0 of 6
GFDLNEYGIS	VIYADGRRTFYSDSVK	GESAGTFDQ	-0.19	6 of 6
GFHLNSYGIS	VIYSDGRRTFYGDSVK	GWTAGTFDS	1.29	5 of 6
GFDLNEYGIS	VIYADGRRTAYTDSVK	GEVAGTFDS	-0.33	6 of 6
GFSLNEYGIS	VIYSDGRRTFYADHVK	GNAAGTFDS	0.01	6 of 6
GFGLDEYGIS	VIFADGQRKYYTDNVK	GHFGEDGVV	nd	0 of 6
GFDLEDYGIS	VIYADGMRTAYADSVK	GEVAGTFDL	-0.04	6 of 6
GFTLNDYGIS	VIYSDGRVTFYGDSVK	GLAALCFIS	nd	0 of 6
GFTLNSYGIS	VIYSDGRRTFYQDSVR	GRAAGTFDL	2.73	1 of 6
GFDLNEYGIS	VIYADGMRTFYSDSVK	GEIAGTFDQ	-0.51	6 of 6
GFTINSYGIS	VIYSDGRRTFYGDSVK	GYASGTFDS	nd	0 of 6
GFTLESYGIS	VIYSDGRRTFYSDSVK	GWAAGGFDS	nd	0 of 6
GFDLNEYGIS	VIYADGMRTFYSDSVK	GTAGGTFDI	0.32	6 of 6
GFLLNSYGIS	VIYSDGRRTFYGDSVK	GRAAGWFNS	nd	0 of 6
GFGLDEYGIS	VIYADGKRAAYKNSVK	GGVGVGGLH	nd	0 of 6
GFSLNSYGIS	VIYSDGRRTFYADSVK	GLVAGTFDS	0.69	6 of 6
GFDLNEYGIS	VIYADGVRTFYTDSVK	GTNAGTFDM	-0.42	6 of 6
GFTLNEYGIS	VIYSDGRRTFYTDSVK	GRTAGTFSS	0.13	6 of 6
GFDLNEYGIS	VIYADGMRTAYIDSVK	GNNAGTFDI	-0.48	6 of 6
GFTLNEYGIS	VIYSDGKRTFYGDSVR	GRVAGTFDS	0.11	6 of 6
GFDLNEYGIS	VIYADGRRTFYADSVK	GQVAGTFSV	-0.56	6 of 6
GFTLNSYGIS	VIYSDGRRTFYGDSVK	GMEAGTFDS	1.07	6 of 6
GFTLNDYGIS	VIYSDGRRTFYGDSVK	GRTAGTFIQ	4.24	1 of 6
GFTLNSYGIS	VIYSDGRRTFYGDSVK	GRWAGTFDS	1.89	1 of 6
GFDLNEYGIS	VIYADGRRTFYADSVK	GNQAGTFNS	-0.09	6 of 6
GFELNDYGIS	VIYSDGRRTMYGDSVK	GRAAGTFDS	1.62	6 of 6
GNDLDEYGIS	VIYADGSRTSYIDKVK	GLVGGMLIV	1.38	5 of 6
GFTLNEYGIS	VIYSDGRRTFYGDSVK	GRAAVTFDR	nd	0 of 6
GFDLNEYGIS	VIYADGRRTFYIDSVK	GEEAGTFDM	-0.39	6 of 6
GFDLNEYGIS	VIYADGKRKAYADSVK	GNVAGTFDI	-0.38	6 of 6
GFDLNEYGIS	VIYADGRRTAYSDSVK	GEIAGTFDQ	-0.36	6 of 6
GFDINEYGIS	VIYADGMRTGYQNQVK	GYMSGGLNQ	nd	0 of 6
GFWLNDYGIS	VIYSDGRRTFYQDSVK	GRTAGTFDS	1.22	6 of 6
GFTLNEYGIS	VIYADGYRTFYGDSVK	GRAAGTFDS	0.15	6 of 6
GFSLNEYGIS	VIYSDGRRTFYGDQVK	GQAAGTFDN	0.45	6 of 6
GFDLNEYGIS	VIYADGRRTFYADSVK	GKNAGTFIV	nd	0 of 6
GIELNSYGIS	VIYSDGRRTSYGDSVK	GKAAGTFDG	1.30	5 of 6
GFSLNQYGIS	VIYSDGRRTFYSDSVK	GRAAGTFDS	0.18	6 of 6
GFQLNEYGIS	VIYSDGRRTFYGDSVK	GRAAGTFWS	nd	0 of 6
GFDLNSYGIS	VIYSDGRRTFYGDSVK	GRAAGTFDS	0.92	12 of 12
GFDLNEYGIS	VIYADGRRTAYSDSVK	GGNAGTFDA	-0.22	6 of 6
GFELNEYGIS	VIYSDGRRTFYSDSVK	GRQAGTFDS	-0.67	5 of 6
GFTLNSYGIS	VIYSDGRRTFYVDDVK	GQEAGTFDT	0.52	5 of 6
GFDLNEYGIS	VIYADGMRTQYIDSVK	GEAAGTFDL	-0.40	6 of 6
GFDLNEYGIS	VIYADGVRTAYADSVK	GNEAGTFDM	0.05	6 of 6
GFNLDEYGIS	VIYADGQRTAYADSVK	GENAGTFDV	-0.24	6 of 6
GFDLNEYGIS	VIYADGMRTFYSDKVK	GNVAGTFDI	-0.19	6 of 6
GFCLNEYGIS	VIYSDGRRTFYADSVK	GRAAGTFDE	1.47	6 of 6
GFDLDEYGIS	VIYADGMRTFYADSVK	GTNAGTFLS	1.24	4 of 6
GFDLDEYGIS	VIYADGKRTYYADSVK	GENAGTFDV	0.26	6 of 6
GFTTDSYGIS	VIYSDGRRTFYGDSVK	KRAAGTALS	nd	0 of 6
GQDLNEYGIS	VIYADGLRTAYLQNVK	GVNAGFDQY	nd	0 of 6
GFTLNEYGIS	VIYSDGRRTFYGDSVK	GRAAVTFCV	nd	0 of 6
GFDLEEYGIS	VIYADGMRTAYSDSVK	GNVAGTFDT	-0.19	6 of 6
GFTLNEYGIS	VIYSDGMRTFYSDSVK	GRAAGTFTS	nd	0 of 6
GFTLDSYGIS	VIYSDGRRTFYGDSVK	GRAAGTFSD	1.62	2 of 6
GFGLNSYGIS	VIYSDGRRTFYGDQVK	GKTAGTFDS	1.52	6 of 6

The authors' rule: three or more of the six replicates give a measured affinity, fewer mean a poor binder. Some sequences occur more than once in the pool; their replicates are pooled. The range of this assay differs from that of the first round, and the authors advise against merging the two. Nonspecific signal, from three strains lacking the peptide, appeared in 1% of pairings of all heavy chain designs, centred on 2.08 (5% of these signals below 0.84); values are not corrected for it.